The test deals with Prothrombin (Bos taurus, UniProt P00735). Kind of test: Binding affinity towards thrombin.

As to `CS(=O)(=O)N1CCN(C(=O)[C@H](Cc2cccc(C(=N)N)c2)NS(=O)(=O)c2ccc3ccccc3c2)CC1`, the Ki was 3.3 nM.

The values are drawn from ChEMBL document CHEMBL1132189, “Three-dimensional quantitative structure-activity relationship analyses using comparative molecular field analysis and comparative molecular similarity indices analysis to elucidate selectivity differences of inhibitors binding to trypsin, thrombin, and factor Xa” (J Med Chem, 1999).
